Molecular target: Protein mono-ADP-ribosyltransferase PARP14 (Homo sapiens, UniProt Q460N5)
Assay: Inhibition of N-terminal MBP tagged/C-terminal PARP14 (unknown origin) expressed in Escherichia coli in presence of NAD+

Chains of the proteins cited; added tags and fusions are not shown.
UniProt Q460N5, whole entry: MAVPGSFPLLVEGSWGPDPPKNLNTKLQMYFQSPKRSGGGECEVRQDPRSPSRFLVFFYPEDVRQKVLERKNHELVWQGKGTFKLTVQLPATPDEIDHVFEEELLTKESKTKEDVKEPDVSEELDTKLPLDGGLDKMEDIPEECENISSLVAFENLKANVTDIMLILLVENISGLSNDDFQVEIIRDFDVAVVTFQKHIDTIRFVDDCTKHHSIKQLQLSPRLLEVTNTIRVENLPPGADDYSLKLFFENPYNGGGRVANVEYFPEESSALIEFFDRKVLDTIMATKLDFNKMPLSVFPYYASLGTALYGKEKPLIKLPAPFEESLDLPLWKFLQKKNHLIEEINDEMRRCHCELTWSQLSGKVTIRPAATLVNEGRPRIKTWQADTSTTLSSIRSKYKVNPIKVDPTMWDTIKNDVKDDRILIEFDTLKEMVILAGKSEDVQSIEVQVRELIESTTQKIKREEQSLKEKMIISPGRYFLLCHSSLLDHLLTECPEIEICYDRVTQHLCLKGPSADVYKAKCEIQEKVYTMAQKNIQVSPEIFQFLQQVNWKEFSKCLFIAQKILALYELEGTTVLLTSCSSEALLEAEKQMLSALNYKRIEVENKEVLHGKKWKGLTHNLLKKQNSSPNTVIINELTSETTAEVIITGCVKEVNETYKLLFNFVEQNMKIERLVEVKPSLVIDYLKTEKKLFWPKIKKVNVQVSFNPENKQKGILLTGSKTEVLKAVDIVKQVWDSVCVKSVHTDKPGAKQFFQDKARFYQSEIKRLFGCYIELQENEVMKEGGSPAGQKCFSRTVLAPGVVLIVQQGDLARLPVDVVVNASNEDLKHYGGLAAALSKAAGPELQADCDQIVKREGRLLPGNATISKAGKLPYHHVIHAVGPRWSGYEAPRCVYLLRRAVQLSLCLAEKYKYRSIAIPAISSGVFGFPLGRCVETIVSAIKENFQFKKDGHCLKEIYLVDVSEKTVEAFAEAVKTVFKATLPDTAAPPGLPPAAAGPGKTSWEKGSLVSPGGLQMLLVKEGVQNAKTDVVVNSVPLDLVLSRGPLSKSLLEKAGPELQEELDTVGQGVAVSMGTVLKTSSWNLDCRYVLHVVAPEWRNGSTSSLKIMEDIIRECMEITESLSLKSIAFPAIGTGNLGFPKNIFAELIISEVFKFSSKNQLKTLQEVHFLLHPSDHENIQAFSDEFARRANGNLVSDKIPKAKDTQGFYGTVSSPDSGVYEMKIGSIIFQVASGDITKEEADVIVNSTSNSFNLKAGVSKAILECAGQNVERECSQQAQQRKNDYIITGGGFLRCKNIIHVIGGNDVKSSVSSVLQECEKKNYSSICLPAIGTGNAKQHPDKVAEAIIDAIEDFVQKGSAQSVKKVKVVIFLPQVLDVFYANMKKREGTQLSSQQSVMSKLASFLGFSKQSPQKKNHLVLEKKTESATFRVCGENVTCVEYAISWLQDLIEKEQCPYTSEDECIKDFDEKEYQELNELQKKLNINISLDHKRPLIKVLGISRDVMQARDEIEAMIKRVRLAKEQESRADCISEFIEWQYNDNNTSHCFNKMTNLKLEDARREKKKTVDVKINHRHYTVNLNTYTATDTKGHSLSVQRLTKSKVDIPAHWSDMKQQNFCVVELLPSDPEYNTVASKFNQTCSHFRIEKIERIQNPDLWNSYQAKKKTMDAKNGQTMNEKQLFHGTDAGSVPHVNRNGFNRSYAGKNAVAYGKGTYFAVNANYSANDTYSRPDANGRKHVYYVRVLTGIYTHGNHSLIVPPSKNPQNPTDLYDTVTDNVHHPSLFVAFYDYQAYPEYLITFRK

With `Cc1ccc2c(c1)sc1nncn12` the IC50 was 1200 nM.

— ChEMBL document CHEMBL5316303, “[1,2,4]Triazolo[3,4-b]benzothiazole Scaffold as Versatile Nicotinamide Mimic Allowing Nanomolar Inhibition of Different PARP Enzymes” (J Med Chem, 2023)
